Tests used:
[1] = test system: CAR-T cells; assay: CAR-T cell expansion assay (KIP-1 or CD3/CD28 stimulation); settings: further dose titrations; depending on the mode of stimulation
[2] = Clinical pharmacokinetic data converted to in vitro concentrations; settings: human, in vivo
[3] = molecular target: JAK2 (Homo sapiens, UniProt O60674); assay: JAK kinase inhibition biochemical assay (Kinase-Glo Plus luminescence), JAK2

The chains behind the UniProt entries cited, without tags or fusion partners. Where a name states a change or a piece, a line headed by the entry shows the natural chain unless it says otherwise.
UniProt O60674: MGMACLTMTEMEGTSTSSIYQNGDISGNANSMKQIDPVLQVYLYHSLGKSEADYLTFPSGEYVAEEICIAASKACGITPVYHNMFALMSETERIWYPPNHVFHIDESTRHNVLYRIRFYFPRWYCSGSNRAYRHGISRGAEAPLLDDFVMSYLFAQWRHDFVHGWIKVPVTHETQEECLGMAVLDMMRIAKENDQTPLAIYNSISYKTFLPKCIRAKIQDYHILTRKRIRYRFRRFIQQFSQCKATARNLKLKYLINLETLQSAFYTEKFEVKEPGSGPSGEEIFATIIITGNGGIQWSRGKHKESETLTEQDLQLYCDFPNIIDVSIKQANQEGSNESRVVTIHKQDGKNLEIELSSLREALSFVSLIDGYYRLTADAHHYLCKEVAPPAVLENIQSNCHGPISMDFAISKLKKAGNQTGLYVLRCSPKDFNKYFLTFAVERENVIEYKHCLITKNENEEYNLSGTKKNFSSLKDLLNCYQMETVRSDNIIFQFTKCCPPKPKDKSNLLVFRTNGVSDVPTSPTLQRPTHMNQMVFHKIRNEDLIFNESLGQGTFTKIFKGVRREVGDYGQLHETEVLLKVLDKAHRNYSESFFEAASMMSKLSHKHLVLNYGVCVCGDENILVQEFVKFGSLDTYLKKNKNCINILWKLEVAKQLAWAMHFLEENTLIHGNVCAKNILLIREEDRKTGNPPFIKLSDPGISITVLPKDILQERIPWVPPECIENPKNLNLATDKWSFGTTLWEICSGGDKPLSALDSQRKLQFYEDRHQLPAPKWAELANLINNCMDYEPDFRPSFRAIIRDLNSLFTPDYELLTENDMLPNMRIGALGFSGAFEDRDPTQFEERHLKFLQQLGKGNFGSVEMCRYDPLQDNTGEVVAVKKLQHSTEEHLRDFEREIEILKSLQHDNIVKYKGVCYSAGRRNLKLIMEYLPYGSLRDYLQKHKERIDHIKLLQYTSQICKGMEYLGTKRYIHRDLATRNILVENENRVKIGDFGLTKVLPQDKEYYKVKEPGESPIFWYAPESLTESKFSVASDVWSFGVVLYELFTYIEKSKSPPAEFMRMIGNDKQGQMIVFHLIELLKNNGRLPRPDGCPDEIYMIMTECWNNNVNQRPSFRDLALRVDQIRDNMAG

CCS(=O)(=O)N1CC(CC#N)(n2cc(-c3ncnc4[nH]ccc34)cn2)C1 [baricitinib]
concentration at and above which severe effects on expansion were seen [1]: 10 to 20 nM
PPB adj. in Vitro concentration [2]: 23 nM
clinically relevant dose level (in vitro concentration) [2]: ~25 nM
IC50 [3]: 14 nM

— patent US12252701B2, “Chimeric antigen receptor T cell therapy” (KITE PHARMA, INC., priority 2020, dated 2025)
